Data reported in patent publication US20090298811A1, “BENZIMIDAZOLONE DERIVATIVES” (Pfizer Inc, priority 2006, published 2009).

Chains of the proteins cited; added tags and fusions are not shown.
UniProt P21554, whole entry: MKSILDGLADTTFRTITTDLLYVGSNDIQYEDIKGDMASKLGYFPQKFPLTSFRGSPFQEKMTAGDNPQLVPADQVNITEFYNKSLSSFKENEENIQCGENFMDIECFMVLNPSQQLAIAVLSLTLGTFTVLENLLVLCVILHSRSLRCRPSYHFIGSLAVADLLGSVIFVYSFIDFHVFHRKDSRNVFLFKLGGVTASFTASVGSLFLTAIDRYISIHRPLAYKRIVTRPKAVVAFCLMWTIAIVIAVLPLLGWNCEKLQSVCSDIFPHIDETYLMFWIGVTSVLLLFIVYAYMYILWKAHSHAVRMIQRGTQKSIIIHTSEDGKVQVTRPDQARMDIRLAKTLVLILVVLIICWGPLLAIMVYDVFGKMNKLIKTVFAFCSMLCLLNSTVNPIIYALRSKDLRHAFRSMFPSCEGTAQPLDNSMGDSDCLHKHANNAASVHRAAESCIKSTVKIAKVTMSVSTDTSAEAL

Key:
human CB1 receptor [1] = molecular target: T1, human CB1 receptor (Homo sapiens, UniProt P21554); experiment: GTPγS binding on membranes of CHO cells expressing the human CB1 receptor; conditions: read-out: GTPγS EC50, CHO cell membranes, [35S] GTPγS
Experimental: Membrane preparation: CHO cells expressing the human CB1 receptor were grown to 80% confluence in Ham's F-12 Nutrient Medium (Invitrogen) containing 10% fetal bovine serum (Invitrogen), 1% pen/strep (Invitrogen), 1% Nonessential amino acids (Invitrogen) and 500 μg/ml G418 (Invitrogen). Cells were released from flasks using Cell Dissociation Buffer (Invitrogen). Cells were pelleted by centrifugation at 500×G for 5 minutes. Membranes were prepared by resuspending cells in ice cold Assay Buffer (25 mM Tris pH 7.4, 5 mM EDTA, 5 mM EGTA, Complete Protease Inhibitor (Roche)). Cells were lysed with 12 strokes of a dounce homogenizer. Unlysed cells were pelleted by centrifugation at 500×G for 5 minutes. Membranes were pelleted by centrifugation at 25,000×G for 30 minutes. Membranes were resuspended in TEE, dounced 12 strokes, and pelleted a second time at 25,000×G for 30 minutes. Membrane pellet was resuspended in 50 mM Tris pH 7.4, 100 mM NaCl, 3 mM MgCl2, 0.2 mM EGTA, Complete Protease Inhibitor (Roche). Protein concentration was determined using the Micro-BCA Protein Assay Kit (Pierce) using BSA as a standard. […] 40 μl of Microscint-20 (Perkin Elmer) was added per well, and plates were counted using a Top-Count Microplate Scintillation Counter (Perkin Elmer). Binding data were analyzed and EC50 values were calculated using Graph Pad Prism 4.0 Software.

human CB1 receptor [2] = molecular target: T1, human CB1 receptor; experiment: Human CB1 receptor binding, [3H] CP-55,940 displacement on HEK cell membranes; conditions: read-out: CB1 Ki, [3H] CP-55,940 500 pM
Experimental: The Human CB1 receptor binding affinity and other biological activities of the compounds of this invention are determined by the following procedures.
Membrane preparation: Human Embryonic Kidney (HEK) Cells expressing the human CB1 receptor under transcriptional regulation of a tetracycline inducible promoter were grown in Dulbecco's Modified Essential Medium with sodium pyruvate (Invitrogen, Carlsbad, Calif.) containing 10% tetracycline free fetal bovine serum (Clonetech, Mountain View, Calif.) 100 μg/ml hygromycin (Calbiochem, San Diego, Calif.), 5 μg/ml blasticidin (Invitrogen). CB1 receptor expression was induced by addition of 1 μg/ml doxycycline (Calbiochem) and incubation for an additional 24 hours. Cells were released from flasks using Cell Dissociation Buffer (Invitrogen). Cells were pelleted by centrifugation at 500×G for 5 minutes. […] Protein concentration was determined using the Micro-BCA Protein Assay Kit (Pierce, Rockford, Ill.) using BSA as a standard. […] Nonspecific binding was determined by incubation with 50 μM WIN-55,212-2 (Tocris, Ellisville, Mo.). […] 40 μl of Microscint-20 (Perkin Elmer) was added per well, and plates were counted using a Top-Count Microplate Scintillation Counter (Perkin Elmer). Binding data were analyzed and EC50 and Ki values calculated using Graph Pad Prism 4.0 Software.

Compound: Cc1ccc2c(c1)n(CC1CCCCC1)c(=O)n2C(=O)N[C@@H](CC(C)C)C(N)=O
- EC50 (human CB1 receptor [1]): 399 nM
- Ki (human CB1 receptor [2]): 17.2 nM

Compound: CC(C)(C)[C@H](NC(=O)n1c(=O)n(CCCC2CC2)c2ccccc21)C(N)=O
- EC50 (human CB1 receptor [1]): 13.5 nM
- Ki (human CB1 receptor [2]): 1.8 nM
